Earlier results, collected in patent publication US20240398790A1 (ABBVIE INC., priority 2021, published 2024).

System: AS
Conditions: literature; cited from earlier work

## abatacept: T cell blockade inhibitor
  efficacy achieved in AS: low efficacy
